For the assay, the target named is Prothrombin (Homo sapiens, UniProt P00734). Description: Inhibition of human thrombin using tosyl-glycyl-prolyl-arginine-4-nitranilide acetate as substrate preincubated for 10 mins by spectrophotometer analysis.

SMILES strings stand for the structures.

Usually IC50 stands for the concentration that inhibits the measured activity by half. A low value points to inhibition by little substance.

Regarding `CC1CNc2c(cccc2S(=O)(=O)N[C@@H](CCCNC(=N)N)C(=O)N2CC[C@@H](C)C[C@@H]2C(=O)O)C1` (stereo partly specified) [ARGATROBAN], the IC50 was 3.88 nM.

These data come from ChEMBL document CHEMBL3627642 (Bioorg Med Chem, 2015).
